# Test results from article PMC12833874 (Journal of Medicinal Chemistry, 2025).
# Sequences of proteins named here, by UniProt entry; tags and fusion partners are left off. A change or cut given only in a name is not applied to a line headed by its entry.
# UniProt P41146: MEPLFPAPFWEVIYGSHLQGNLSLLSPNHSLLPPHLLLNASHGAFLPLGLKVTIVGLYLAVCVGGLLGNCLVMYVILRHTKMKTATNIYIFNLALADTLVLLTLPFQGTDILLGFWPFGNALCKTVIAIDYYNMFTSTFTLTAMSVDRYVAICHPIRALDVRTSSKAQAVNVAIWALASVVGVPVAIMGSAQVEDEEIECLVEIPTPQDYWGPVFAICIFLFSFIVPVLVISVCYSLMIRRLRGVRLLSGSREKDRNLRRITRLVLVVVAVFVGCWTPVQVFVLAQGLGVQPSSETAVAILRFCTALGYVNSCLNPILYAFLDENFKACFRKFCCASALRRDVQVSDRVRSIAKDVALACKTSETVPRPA
# Experiments:
# NOPr [1] = molecular target: T1, NOPr (Homo sapiens, UniProt P41146); experiment: TR-FRET equilibrium saturation binding, Lumi4Tb-SNAP-NOPr CHO membranes; conditions: NOPr vs MOPr, DOPr, KOPr
# Experimental: The levels of specific binding (total – nonspecific) were calculated and used to determine the dissociation constant (K D) as a measure of affinity. Specific binding curves are shown in Supporting Figure S2. […] Nonetheless, both ligand high affinity and low background signal are promising properties for fluorescence-based studies at the NOPr, enabling low concentrations to be used and improving signal-to-noise ratio. To further investigate the binding characteristics 13g-h, kinetic studies were carried out.
# For 13g-h, the homogeneous TR-FRET (HTRF) ratio [(acceptor λem (665 nM)/donor λem (620 nM) × 10000)] is plotted against ligand concentration (nM) for the total binding (solid circle) and nonspecific binding (NSB) (hollow circle). Kinetic binding of (c) 13g and (d) 13h to Lumi4-Tb SNAP-NOPr-CHO membranes was measured over 15 min to determine the NOPr Ligand kinetic parameters in Table . For each concentration applied (0–50 nM), the specific labeling (total-NSB) HTRF ratio × 10,000 is plotted against time (minutes). For end point saturation binding assays, data represent the mean ± SEM of n = 3 experiments performed in duplicate, and for kinetic binding studies, all data represent the mean of n = 3 experiments. […]
# NOPr [2] = molecular target: T1, NOPr; experiment: TR-FRET kinetic binding, Lumi4-Tb-SNAP-NOPr-CHO membranes
# Experimental: For 13g-h, the homogeneous TR-FRET (HTRF) ratio [(acceptor λem (665 nM)/donor λem (620 nM) × 10000)] is plotted against ligand concentration (nM) for the total binding (solid circle) and nonspecific binding (NSB) (hollow circle). Kinetic binding of (c) 13g and (d) 13h to Lumi4-Tb SNAP-NOPr-CHO membranes was measured over 15 min to determine the NOPr Ligand kinetic parameters in Table . For each concentration applied (0–50 nM), the specific labeling (total-NSB) HTRF ratio × 10,000 is plotted against time (minutes). For end point saturation binding assays, data represent the mean ± SEM of n = 3 experiments performed in duplicate, and for kinetic binding studies, all data represent the mean of n = 3 experiments.
# Measurements were taken over 15 min, until a steady state was achieved, and data were globally fitted to a model to derive parameters provided in Table . […] Importantly, these interactions are sufficient for high affinity binding, while residence time is not excessively long, making the ligands well-suited as tracers for performing accurate binding experiments and kinetic studies on unlabeled NOPr ligands.
# All ligands were prepared in TR-FRET buffer, consisting of Hanks’ Balanced Salt Solution (Sigma-Aldrich H6648) (KCl 5 mM, KH2PO4 0.4 mM, NaHCO3 4 mM, NaCl 137 mM, Na2HPO4 0.3 mM), Pluronic-F127 (0.02% w/v), DMSO (1% v/v), and glucose (1 mg.mL^–1), adjusted to pH 7.4. Membrane aliquots were thawed on ice prior to use, and membrane suspensions [membrane (0.05 μg.μL^–1), Gpp(NH)p (100 μM), and saponin (50 μg.mL^–1)] were prepared in TR-FRET buffer. To ensure homogeneity, the membrane suspension was passed through a 27-gauge needle before use. Measurements were made in low-binding 384-well optiplates (PerkinElmer) on a PHERAstar (BMG Labtech) plate reader using the HTRF module [337 nm excitation with dual emission detection at 620 nm (terbium cryptate donor) and 665 nm emission (fluorescent ligand acceptor)] at a focal height of 11.4 mm. […]
# NOPr [3] = molecular target: T1, NOPr; experiment: TR-FRET saturation binding of 13h in Na+/Gpp(NH)p or NMDG buffer
# Experimental: To investigate the effect of Na^+ and guanine nucleotides on competition binding experiments, as discussed in Section , we decided to perform competition binding experiments in the presence (Figure a) and absence (Figure b) of 100 mM Na^+ ions, which are known to be a negative allosteric modulator of many GPCRs , and a nonhydrolyzable form of guanine triphosphate, Gpp(NH)p (100 mM). To maintain an equivalent ionic strength in the Na^+ free condition, 100 mM of the organic cation N-methyl-D-glucamine (NMDG) was included in the buffer.
# Saturation and competition binding experiments were performed as previously described using different buffer conditions. In the sodium and Gpp(NH)-p, free condition experiments were carried out in buffer containing (20 mM HEPES, 100 mM NMDG, 6 mM MgCl2, 1 mM EGTA, and 1 mM EDTA, pH 7.4) and in the sodium and Gpp(NH)-p containing condition buffer containing (20 mM HEPES, 100 mM NaCl, 6 mM MgCl2, 1 mM EGTA, and 1 mM EDTA, pH 7.4) with 100 μM Gpp(NH)-p. […] For saturation experiments, increasing concentrations of 13h (0–400 nM) were used.
# Gpp(NH)p (100 µM) + NMDG (100 mM) […]
# Figure S4. TR-FRET saturation binding experiments to characterize the afKinity of Kluorescent ligand 13h in
# buffers containing a) 100 mM Na+ and 100 mM Gpp(NH)p or b) 100 mM NMDG. […]
# circle) and absence (total-binding) (hollow circle) of SB612111 was assessed after 2 hrs at 37° C. […]
compound,measurement,setting,value
"CN1/C(=C/C=C/C=C/C2=[N+](CCCCCC(=O)NCCOc3ccc(CN4CCC[C@@H]4C(=O)NCCCN4CCC5(CC4)OCc4ccccc45)cc3)c3ccc(S(=O)(=O)[O-])cc3C2(C)C)C(C)(C)c2cc(S(=O)(=O)[O-])ccc21.[K+] [13h, Potassium 1-(6-((2-(4-(((R)-2-((3-(3H-Spiro[isobenzofuran-1,4′-piperidin]-1′-yl)propyl)carbamoyl)pyrrolidin-1-yl)methyl)phenoxy)ethyl)amino)-6-oxohexyl)-3,3-dimethyl-2-((1E,3E)-5-((E)-1,3,3-trimethyl-5-sulfonatoindolin-2-ylidene)penta-1,3-dien-1-yl)-3H-indol-1-ium-5-sulfonate]",selectivity over the other opioid receptors,NOPr [1],> 490 fold
same,K on of 13h relative to 13g,NOPr [2],> 7.7 fold
same,koff,"NOPr [2]; 0–50 nM, over 15 min",0.00233 s⁻¹
same,kon,"NOPr [2]; 0–50 nM, over 15 min",400000 M⁻¹ s⁻¹
same,K D in Na+ and Gpp(NH)p condition relative to NMDG condition,NOPr [3],approximately 2 fold
same,Kd,"NOPr [3]; 100 mM Na+, 100 μM Gpp(NH)p",8 nM
